Assay results published in patent US20240216444A1, “DESIGNED BACTERIAL COMPOSITIONS” (Seres Therapeutics, Inc., priority 2015, published 2024).

Tested on: bile salt hydrolase (BSH) activity on conjugated bile acids
Test: LC-MS screen for bile salt hydrolase (BSH) activity

Substance: Clostridium glycolicum
- BSH activity on gCDCA by LC-MS: does retain BSH activity
